We go through 2 compounds from patent US7994185B2, “Benzene sulfonamide thiazole and oxazole compounds” (Glaxo Smith Kline LLC, priority 2008, dated 2011).

Amino acid sequences for entries named in this document (tags omitted). Residues count along the entry.
UniProt P15056, 2-766 V600E limits assumed: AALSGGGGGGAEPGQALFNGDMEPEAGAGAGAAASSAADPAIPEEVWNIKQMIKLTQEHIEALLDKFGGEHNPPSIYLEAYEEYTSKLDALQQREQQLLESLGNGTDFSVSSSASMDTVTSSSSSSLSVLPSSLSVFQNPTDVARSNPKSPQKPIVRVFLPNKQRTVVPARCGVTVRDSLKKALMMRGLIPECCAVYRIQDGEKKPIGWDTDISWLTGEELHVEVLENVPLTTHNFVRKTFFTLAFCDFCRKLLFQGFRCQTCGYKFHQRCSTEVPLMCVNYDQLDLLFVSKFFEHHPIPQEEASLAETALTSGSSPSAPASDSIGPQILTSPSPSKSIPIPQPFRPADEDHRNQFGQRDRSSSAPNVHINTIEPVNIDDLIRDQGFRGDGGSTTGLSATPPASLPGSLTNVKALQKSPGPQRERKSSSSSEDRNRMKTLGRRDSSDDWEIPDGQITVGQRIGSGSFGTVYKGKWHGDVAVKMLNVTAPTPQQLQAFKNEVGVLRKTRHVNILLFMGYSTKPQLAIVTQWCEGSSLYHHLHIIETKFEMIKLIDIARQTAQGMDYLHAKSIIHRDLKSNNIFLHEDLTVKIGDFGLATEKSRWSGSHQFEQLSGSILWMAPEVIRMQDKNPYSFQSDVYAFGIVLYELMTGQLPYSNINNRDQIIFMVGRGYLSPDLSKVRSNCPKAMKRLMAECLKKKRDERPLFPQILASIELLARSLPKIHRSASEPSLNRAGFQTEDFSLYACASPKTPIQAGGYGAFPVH

In assay [1] the target is BRAFV600E full-length (amino acids 2-766) (Homo sapiens, UniProt P15056, V600E). Nature of the assay: B-Raf Accelerated MEK ATPase assay (BRAMA). It is filed as biochemical. Particulars: Table 1a; highest pIC50 for the one or more runs, categorized.
Assay [2] has as its system Human colon tumor cells (Colo205). In words: Cell growth inhibition assay (CellTiter-Glo), Colo205. The format is cell-based. The following applies: read-out: Activity in Colo205 Tumor Cells; Table 2a; 3 days incubation.
Assay [3] deals with Human melanoma cancer cells (SK-MEL-28). In words: Cell growth inhibition assay (CellTiter-Glo), SK-MEL-28. The format is cell-based. The following applies: read-out: Activity in SK-MEL-28 Tumor Cells; Table 3a; 3 days incubation.

Turning to `CC(C)c1nc(-c2ccc(F)c(NS(=O)(=O)c3c(F)cccc3F)c2)c(-c2ccnc(NCC(F)(F)F)n2)s1`, in assay [1], the “B-Raf Activity” value is given as “++ (indicates at least one pIC50 measurement greater than 6 against B-Raf but no measurement greater than pIC50 of 7)”. The IC50 in assay [2] and in assay [3] was more than 1000 nM throughout.
As for `COCCCNc1nccc(-c2sc(N3CCOCC3)nc2-c2cccc(NS(=O)(=O)c3cc(F)ccc3F)c2F)n1`, in assay [1], the “B-Raf Activity” value is recorded as “+++ (indicates at least one pIC50 measurement of greater than 7 against B-Raf)”. Further, the IC50 in assay [2] and in assay [3] was less than 100 nM throughout.
